Source: US10781185B2, “Heterocyclic compounds for the inhibition of PASK” (BioEnergenix LLC, priority 2009, dated 2020)

By UniProt entry, the sequences of proteins in these tests, tags left out. Residues count along the entry.
UniProt Q96RG2, 879-1323, stated change not applied: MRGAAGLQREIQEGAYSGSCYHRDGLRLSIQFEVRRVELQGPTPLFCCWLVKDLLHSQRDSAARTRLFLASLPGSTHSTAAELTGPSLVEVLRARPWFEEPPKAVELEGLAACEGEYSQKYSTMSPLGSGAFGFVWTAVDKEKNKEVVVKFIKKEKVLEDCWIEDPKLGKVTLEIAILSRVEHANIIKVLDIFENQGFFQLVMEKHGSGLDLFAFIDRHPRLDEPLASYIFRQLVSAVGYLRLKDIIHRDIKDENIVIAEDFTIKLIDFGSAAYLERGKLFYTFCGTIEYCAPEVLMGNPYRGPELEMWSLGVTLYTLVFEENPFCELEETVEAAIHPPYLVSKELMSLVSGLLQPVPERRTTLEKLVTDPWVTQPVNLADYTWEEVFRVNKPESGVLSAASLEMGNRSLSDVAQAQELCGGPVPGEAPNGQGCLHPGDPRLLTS
UniProt Q96RG2, 999-1251: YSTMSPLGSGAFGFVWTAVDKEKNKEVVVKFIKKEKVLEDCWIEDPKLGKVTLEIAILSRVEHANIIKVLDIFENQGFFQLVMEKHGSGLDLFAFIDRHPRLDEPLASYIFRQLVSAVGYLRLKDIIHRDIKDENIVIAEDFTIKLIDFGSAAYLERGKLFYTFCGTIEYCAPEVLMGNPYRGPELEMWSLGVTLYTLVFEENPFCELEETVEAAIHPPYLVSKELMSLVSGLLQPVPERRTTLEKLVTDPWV

Assays:
[1] = molecular target: PASK (UniProt # Q96RG2; human recombinant N-terminal GST tagged construct, residues 879-1323) (Homo sapiens (Human), UniProt Q96RG2); experiment: PASK ATP Radiochemical Assay; type: biochemical; settings: 33P-ATP radiochemical, Myelin Basic Protein substrate; read-out: IC50 Kinase Domain
Procedure: PASK ATP Radiochemical Assay
Test compounds in DMSO are then added and the mixture, followed by delivery of ^33P-ATP (specific activity 0.01 μCi/μl final) to initiate the reaction. […] The entire reaction mixture is washed through onto a P81 Phosphocellulose paper and washed three times for 10 minutes in 75 mM phosphoric acid and once in methanol prior to drying and scintillation counting.

[2] = molecular target: PASK (Homo sapiens (Human), UniProt Q96RG2); experiment: PAS Kinase FRET Assay; type: biochemical; settings: TR-FRET, Ulight-peptide substrate; read-out: IC50 Kinase Domain
Text: PAS Kinase FRET Assay The aim of the FRET assay is to determine the inhibition potential of test compounds on targeted kinase. This assay platform provides a homogenous screening method for measuring kinase activity by quantitating the amount of phospho-substrate in solution following a kinase reaction. In the presence of kinase and ATP, the Ulight-peptide is phosphorylated and captured by an anti-phospho-substrate antibody, which brings the Eu chelate donor and Ulight acceptor dyes into close proximity. […] The contents of the plate were and incubated at RT for 1 h. The reaction was stopped by adding 5 μl of stop solution to each test well followed by mixing and incubation at RT for 10 minutes. 5 μl of detection mix (detection antibody diluted in detection buffer) was added; the contents of the plate were mixed and then incubated in the dark for 1 hour at RT. […] The results were graphed to calculate the EC50. Titration of ATP at the EC50 concentration of kinase to determine ATP Km,app. was performed using the following method. […] The contents of the plate were and incubated at RT for 1 h. The reaction was stopped by adding 5 μl of stop solution to each test well followed by mixing and incubation at RT for 10 minutes. 5 μl of detection mix (detection antibody diluted in detection buffer) was added; the contents of the plate were mixed and then incubated in the dark for 1 hour at RT. […]

Row | SMILES | IC50 [1] | IC50 [2]
1 | O=C(O)c1ccc2nc(-c3ccccc3)c(N3CCNCC3)nc2c1 [Example 5, 2-Phenyl-3-(piperazin-1-yl)quinoxaline-6-carboxylic acid] | > 10 µM | 
2 | C[C@H]1CCCN1c1nc2cc(C(=O)O)ccc2nc1-c1ccc(F)cc1 [Example 74, (S)-2-(4-Fluorophenyl)-3-(2-methylpyrrolidin-1-yl)quinoxaline-6-carboxylic acid] | < 10 µM | ≤ 10 µM
